Test results from patent US4822773A (Merck & Co., Inc., priority 1987, dated 1989).

Assay: Rectal absorption of drugs from aqueous microenema in rats, percent bioavailability versus intravenous administration
Settings: vs intravenous
Protocol: Experiments were performed with rats wherein each animal received an aqueous microenema applied to the rectal cavity. The microenemas contained target drug entity (amount shown in table) in the presence or absence of 5 mg lauroylcholine chloride or palmitoylcholine iodide. Blood levels were monitored and the amount of drug absoreed calculated against intravenous administration and expressed as percent bioavailability.
The amount of drug absorbed is expressed as percent bioavailability versus intravenous administration
Blood was collected and sodium cefoxitin measured. Absorption of sodium cefoxitin is expressed as percent bioavailability versus intravenous administration.

Gentamicin sulfate
Percent Bioavailability (mean ± SD) with Control (target drug alone (no choline ester), dose as in table (2.5 mg; polypeptide 0.1 mg)): 4 ± 1.2% | Percent Bioavailability (mean ± SD) with Lauroyl choline chloride (target drug plus 5 mg lauroylcholine chloride): 132 ± 43.3%
